Several values for one entry are separate records, joined by “and”; a condition that tells them apart may be missing. Equal entries are not always repeated.
Test system: CTLL-2 cells
Assay: CTLL-2 mouse T lymphocyte proliferation in vitro (MTT)
Assay type: cell-based
Conditions: for Absorbance difference at wavelength of 570 nm-630 nm, OD difference / Absorbance at the wavelength of 570 nm, OD value / Absorbance at the wavelength of 630 nm, OD value: 2 replicate wells; for Absorbance at the wavelength of 630 nm, OD value: reference wavelength
Protocol: 10-30 mL of CTLL-2 cell culture was taken and placed into a 50 mL sterile centrifuge tube, and centrifuged at 2000 r/min for 7 min to collect the cells. The supernatant was discarded, and the cells were washed twice with phosphate buffered saline (DPBS), which was added to about 25 mL each time, followed by centrifugation at 2000 r/min for 7 min. After one more wash with 25 mL of 1640 culture medium (centrifuged at 2000 r/min for 7 min), the cells were resuspended in a basic culture medium, and counted using a cell counting plate. The cell concentration was adjusted to about 6.0×10^5 cells/mL for later use.
50 μL/well of basic culture medium was pre-added to a 96-well cell culture plate. The standard solution and test sample solution were subsequently subjected to a 2-fold serial dilution, with 8 dilutions made for each, leaving 50 μL in each well, and 2 replicate wells were made for each gradient.
50 μL/well of the prepared cell suspension was added to the 96-well plate from low concentration to high concentration. The cell suspension was pipetted with a multichannel pipette until the cells were fully and uniformly mixed, and then added in the air.
The plate was incubated at a condition of 37±1° C. and 5±1% CO2 for 18-24 h.
20 μL/well of 5 mg/mL MTT solution was added, and the plate was incubated at a condition of 37±1° C. and 5±1% CO2 for 4-6 h.
150 μL/well of 15% SDS lysis solution was added, and the plate was incubated at a condition of 37±1° C. and 5±1% CO2 for 18-24 h.
After vibration and mixing uniformly, a color comparison was carried out on a microplate reader, with an experimental wavelength of 570 nm and a reference wavelength of 630 nm.
wherein: • C1 is the dilution factor of the test sample equivalent to the median effective dose of the standard; • C2 is the dilution factor of the median effective dose of the standard; • D1 is the pre-dilution factor of the test sample; • D2 is the pre-dilution factor of the standard;

“IL-2: IL-2 protein provided by Beijing Jenkem Technology Co., Ltd.; standard of the CTLL-2 assay” was tested, and the “Absorbance difference at wavelength of 570 nm-630 nm, OD difference” value (from here on “Absorbance difference at wavelength”) (dilution factor 1) was 0.3524 and 0.3592, the “Absorbance at the wavelength of 570 nm, OD value” (shortened to “Absorbance … of 570 nm, OD value”) (dilution factor 1, standard pre-diluted to 200 IU/mL, test sample to 1300 IU/mL) was 0.6702 and 0.6885 and the “Absorbance … of 570 nm, OD value” (dilution factor 2) was 0.6592 and 0.6745. The “Absorbance difference at wavelength” value (dilution factor 2) was 0.3653 and 0.3506, the “Absorbance … of 570 nm, OD value” (dilution factor 4) was 0.6445 and 0.6734 and the “Absorbance difference at wavelength” value (dilution factor 4) was 0.3423 and 0.3562. The “Absorbance … of 570 nm, OD value” (dilution factor 6) was 0.5853 and 0.6337, the “Absorbance difference at wavelength” value (dilution factor 6) was 0.3100 and 0.3437 and the “Absorbance … of 570 nm, OD value” (dilution factor 16) was 0.5018 and 0.5307. For the same substance, the “Absorbance difference at wavelength” value (dilution factor 16) was 0.2605 and 0.2783, the “Absorbance … of 570 nm, OD value” (dilution factor 32) was 0.3636 and 0.3411 and the “Absorbance difference at wavelength” value (dilution factor 32) was 0.1821 and 0.1683. For the same substance, the “Absorbance … of 570 nm, OD value” (dilution factor 64) was 0.3093 and 0.3456, the “Absorbance difference at wavelength” value (dilution factor 64) was 0.1451 and 0.1468 and the “Absorbance … of 570 nm, OD value” (dilution factor 128) was 0.3023 and 0.2655. The “Absorbance difference at wavelength” value (dilution factor 128) was 0.1260 and 0.1212, the “dilution factor of the median effective dose (midpoint of fitted curve)” value (four-parameter fit of Table 4, standard pre-diluted to 200 IU/mL, test sample to 1300 IU/mL) was 19.3893 and the “Absorbance at the wavelength of 630 nm, OD value” (“Absorbance … of 630 nm, OD value” for short) (dilution factor 1) was 0.3178 and 0.3293. For the same substance, the “Absorbance … of 630 nm, OD value” (dilution factor 2) was 0.2939 and 0.3239, the “Absorbance … of 630 nm, OD value” (dilution factor 4) was 0.3022 and 0.3172 and the “Absorbance … of 630 nm, OD value” (dilution factor 6) was 0.2753 and 0.2900. The “Absorbance … of 630 nm, OD value” (dilution factor 16) was 0.2413 and 0.2524, the “Absorbance … of 630 nm, OD value” (dilution factor 32) was 0.1815 and 0.1728 and the “Absorbance … of 630 nm, OD value” (dilution factor 64) was 0.1642 and 0.1988. The “Absorbance … of 630 nm, OD value” (dilution factor 128) was 0.1763 and 0.1443.

— US20260248888A1, “PHARMACEUTICAL COMPOSITION FOR TREATING COLORECTAL CANCER AND USE THEREOF” (JENKEM TECHNOLOGY CO., LTD. (BEIJING), priority 2022, published 2026)
